Experimental data taken from patent US20250084097A1, “MACROCYCLIC AMIDE COMPOUNDS AND APPLICATION THEREOF” (Medshine Discovery Inc., priority 2021, published 2025).

Amino acid sequences for entries named in this document (tags omitted).
UniProt P00533, whole entry T790M/C797S/L858R: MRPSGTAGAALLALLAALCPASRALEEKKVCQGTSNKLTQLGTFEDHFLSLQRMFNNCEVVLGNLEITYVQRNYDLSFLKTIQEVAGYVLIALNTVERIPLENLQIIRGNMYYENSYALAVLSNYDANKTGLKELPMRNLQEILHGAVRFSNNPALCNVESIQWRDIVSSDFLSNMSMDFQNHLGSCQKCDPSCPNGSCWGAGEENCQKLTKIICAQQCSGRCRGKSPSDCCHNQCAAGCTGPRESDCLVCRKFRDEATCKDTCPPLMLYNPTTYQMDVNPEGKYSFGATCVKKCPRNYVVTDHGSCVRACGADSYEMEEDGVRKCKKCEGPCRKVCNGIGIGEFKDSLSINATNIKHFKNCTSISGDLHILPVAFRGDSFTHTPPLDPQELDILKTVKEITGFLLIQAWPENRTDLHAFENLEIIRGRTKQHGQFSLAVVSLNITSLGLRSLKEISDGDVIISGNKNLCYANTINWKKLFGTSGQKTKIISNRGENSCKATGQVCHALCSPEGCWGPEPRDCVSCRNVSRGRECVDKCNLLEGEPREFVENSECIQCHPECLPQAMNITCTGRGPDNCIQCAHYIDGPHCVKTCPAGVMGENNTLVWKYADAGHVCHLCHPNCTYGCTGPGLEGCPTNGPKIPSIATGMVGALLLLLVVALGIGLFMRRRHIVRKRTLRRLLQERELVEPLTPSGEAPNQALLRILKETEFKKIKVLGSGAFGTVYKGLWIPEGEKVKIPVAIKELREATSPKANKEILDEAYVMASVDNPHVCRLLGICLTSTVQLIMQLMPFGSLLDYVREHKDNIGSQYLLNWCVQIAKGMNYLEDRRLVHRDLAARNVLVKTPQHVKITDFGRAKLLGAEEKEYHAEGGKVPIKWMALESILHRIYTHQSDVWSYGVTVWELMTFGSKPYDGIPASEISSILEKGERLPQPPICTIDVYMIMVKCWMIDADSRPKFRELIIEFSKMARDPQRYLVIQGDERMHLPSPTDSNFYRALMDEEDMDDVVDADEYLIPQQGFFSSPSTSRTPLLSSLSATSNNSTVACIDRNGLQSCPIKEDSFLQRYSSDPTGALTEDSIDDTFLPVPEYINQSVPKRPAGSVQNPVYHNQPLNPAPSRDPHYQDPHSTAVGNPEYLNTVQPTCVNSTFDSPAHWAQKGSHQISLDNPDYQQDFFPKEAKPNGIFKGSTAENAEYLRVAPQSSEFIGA

Target: Ba/F3-FL-EGFR (L858R/T790M/C797S) (Homo sapiens, UniProt P00533, T790M/C797S/L858R, cells depend on it)
Assay: Cell proliferation inhibition, CellTiter-Glo
Format: cell-based
Conditions: read-out: Cell half-maximal inhibition concentration IC50 Ba/F3-FL-EGFR (L858R/T790M/C797S), 72 hours

| SMILES | GI50 |
| --- | --- |
| Cc1cc2cc(n1)-c1cnn(C)c1OCCC[C@@H](C)CN1C(=NC2=O)Nc2cc(Cl)c(N=S3(=O)CCOCC3)cc21 | 6.5 nM |
| Cc1cc2cc(n1)-c1cnn(C)c1OCCC[C@@H](C)CN1C(=NC2=O)Nc2ccc(N=S3(=O)CCOCC3)c(Cl)c21 | 8.6 nM |
| Cc1cc2cc(n1)-c1cnn(C)c1OCCC[C@@H](C)CN1C(=NC2=O)Nc2ccc(N=S3(=O)CCCC3)c(Cl)c21 | 4.6 nM |
| Cc1cc2cc(n1)-c1cnn(C)c1OCCC[C@@H](C)CN1C(=NC2=O)Nc2cc(Cl)c(N=S3(=O)CCCC3)cc21 | 6.4 nM |
